## Yeast mating assay 1: variants of the scFv Ab-14

The measurements come from Engelhart et al. 2022 (doi:10.1038/s41597-022-01779-4) through the FLAb antibody collection.

The target is the same throughout: PDVDLGDISGINAS, from the HR2 region of SARS-CoV-2 spike.

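Phage display of a naive human antibody library on the peptide gave the parent. Variants in AAYL49 differ from the parent at up to three CDR positions; double and triple changes were sampled at random. Affinity was read by AlphaSeq, a pooled yeast mating assay with surface-displayed partners. Binding brings cells together so that they mate, and sequencing counts the barcode pairs among the diploids. The ratio of observed to expected reads was calibrated, replicate by replicate, on BCL2-family standards whose Kd was known from biolayer interferometry. Each pool was mated in three replicate cultures.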

Ab-14 is the parent antibody, in scFv form: VH, then a (GGGGS)3 linker, then VL. The light chain is unchanged in all variants.
VH: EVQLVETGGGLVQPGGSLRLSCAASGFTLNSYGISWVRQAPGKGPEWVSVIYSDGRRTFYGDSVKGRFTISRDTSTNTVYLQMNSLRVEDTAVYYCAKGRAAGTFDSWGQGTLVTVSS
VL: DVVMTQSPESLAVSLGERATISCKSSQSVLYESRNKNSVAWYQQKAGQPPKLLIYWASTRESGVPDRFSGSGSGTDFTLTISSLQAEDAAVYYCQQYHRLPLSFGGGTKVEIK

Each variant is given by its three heavy chain CDRs, as the data file delimits them; those of the parent are GFTLNSYGIS, VIYSDGRRTFYGDSVK, GRAAGTFDS. The read-out is the apparent dissociation constant on a log10 scale (nM): the lower, the stronger. Replicates are averaged; those with no signal do not enter the mean. A pair that was not seen in that replicate is written "n.d."; this usually means weak binding, but a binder can also be missed.

| CDR-H1 | CDR-H2 | CDR-H3 | log10 Kd (nM) by replicate | mean, log10 nM | control signals |
|---|---|---|---|---|---|
| GKTLNSYGIS | WIYSDGRRTFYGDEVK | GRAAGTFDS | n.d. n.d. n.d. | n.d. | 0 of 9 |
| GFTTNSYGIS | VIYSDGRRTFYFDSVK | GYAAGTFDS | n.d. 3.65 n.d. | 3.65 | 1 of 9 (4.87) |
| GFTLNSYGIS | VIYSDGRRTFGWDSVK | GLAAGTFDS | n.d. 4.88 n.d. | 4.88 | 3 of 9 (3.75) |
| GFKLNSYGIS | VIYSDGRKTFYGVSVK | GRAAGTFDS | n.d. n.d. 5.45 | 5.45 | 0 of 9 |
| GFTLNSYQIM | VIYSDGRRTFYGDSVW | GRAAGTFDS | n.d. 3.78 n.d. | 3.78 | 2 of 9 (4.81) |
| GFTLESYGIS | VIYSDGRRTFYGESVK | GRYAGTFDS | 0.78 1.09 1.00 | 0.96 | 0 of 9 |
| GFTLNSYGIS | VIYSDGRRTFEGDSVK | GRGAGTFDY | n.d. n.d. n.d. | n.d. | 2 of 9 (3.67) |
| ETTLNSYGIS | VIYSDGRRTFYGDSQK | GRAAGTFDS | n.d. n.d. n.d. | n.d. | 0 of 9 |
| HFTLNSYGIS | VIYSDGRRTFTGDSNK | GRAAGTFDS | n.d. n.d. n.d. | n.d. | 1 of 9 (3.52) |
| GATLNSYGIS | VIYSPGRRTFYGDSVY | GRAAGTFDS | n.d. n.d. n.d. | n.d. | 2 of 9 (3.42) |
| GFTLNSYGIS | VIYSDKRRTFYGDSVK | GRTAGTFDI | n.d. n.d. n.d. | n.d. | 1 of 9 (3.74) |
| GKTLNSYGIS | VIYSDGRRTFYGDGVK | GRAARTFDS | n.d. n.d. n.d. | n.d. | 2 of 9 (3.98) |
| GFTLLSYGIS | VVYSDGRRTFYGDSVK | GRAAGTEDS | n.d. n.d. 5.19 | 5.19 | 3 of 9 (3.57) |
| GFTLGSYGIS | VIYSDGRRTFYGHSVK | GRAAGTWDS | n.d. n.d. n.d. | n.d. | 0 of 9 |
| GFTLNSYGIS | VITSKGRRHFYGDSVK | GRAAGTFDS | 4.09 4.16 n.d. | 4.13 | 2 of 9 (3.96) |
| GFTLNSYGIS | VIYSDGRRTFYGDSQK | GRAAMCFDS | n.d. n.d. n.d. | n.d. | 0 of 9 |
| GFTLNSYGIS | VIYADGVRTFYGDSVK | GRAAGTFDT | 0.93 0.94 1.09 | 0.99 | 1 of 9 (3.26) |
| GFTLNSYGIS | VIYSDCRRTFYGDSVK | GRAAGTFMT | n.d. n.d. n.d. | n.d. | 0 of 9 |
| GFTLNSYGIS | VIYSDGRRGFYGDSVK | GLAAGTFDV | 5.56 n.d. 3.07 | 4.31 | 1 of 9 (2.98) |
| GFTHNSYGIE | VIYSDGRRTFYGDSVK | GRAAFTFDS | 4.78 n.d. n.d. | 4.78 | 4 of 9 (5.42) |
| GLTLNSYGIS | TIYSDGRRTFGGDSVK | GRAAGTFDS | n.d. n.d. n.d. | n.d. | 1 of 9 (3.84) |
| GFSLNSYGIS | VWYSDGRRTFYGDSVK | GRAAGTFGS | n.d. n.d. n.d. | n.d. | 0 of 9 |
| GFHLNSYGIS | VIYSDGRGTFYGDSVD | GRAAGTFDS | n.d. n.d. n.d. | n.d. | 0 of 9 |
| GFTLNCYGIS | VMYSDGRRTFYGDSVK | GRAMGTFDS | n.d. n.d. n.d. | n.d. | 0 of 9 |
| GETLNSGGIS | VIYSDGRRTFYGDSVK | PRAAGTFDS | n.d. n.d. n.d. | n.d. | 1 of 9 (4.33) |
| FFTLNSYGIS | VIYSDGRRTFPGASVK | GRAAGTFDS | n.d. n.d. n.d. | n.d. | 0 of 9 |
| GFTLNSAGIS | VIYSDGRRTFYGDSVK | GRAAGTFDH | n.d. n.d. n.d. | n.d. | 1 of 9 (3.37) |
| GFTLNSYGIS | VVYSDGRRTFYGDSVK | GRAAGTGDS | n.d. n.d. n.d. | n.d. | 1 of 9 (2.65) |
| GFTLNSYGNS | VIYSDGRATFYGDSAK | GRAAGTFDS | n.d. n.d. n.d. | n.d. | 0 of 9 |
| GFTRNSYGIS | VIYSDGMRTFYGDSVK | GRAAGTFPS | n.d. n.d. n.d. | n.d. | 0 of 9 |
| GFTLNSYGIS | VIYSDGRRTFYGDSVK | GRAAGTFLQ | 0.56 0.92 0.40 | 0.63 | 0 of 9 |
| GQTLNAYGIS | VIYSDGRRTFYGDSVI | GRAAGTFDS | n.d. 2.89 3.47 | 3.18 | 0 of 9 |
| GFTWNSYGIS | VIYSDGRRTFYGDSVV | GRAAGTFDS | n.d. 5.61 n.d. | 5.61 | 3 of 9 (4.70) |
| GFTLNSYPIS | VIYGDPRRTFYGDSVK | GRAAGTFDS | n.d. n.d. 5.96 | 5.96 | 2 of 9 (5.12) |
| GFTLNFYGIF | VIYSDGRRTEYGDSVK | GRAAGTFDS | n.d. n.d. n.d. | n.d. | 0 of 9 |
| GFTLNSYGIS | VISSDGRREFYGDSVK | GRAAGTFDS | 4.67 n.d. n.d. | 4.67 | 6 of 9 (3.99) |
| GFTLNHYGIS | VIYSDIRRTFYGDSVK | GRAQGTFDS | n.d. n.d. 4.38 | 4.38 | 3 of 9 (4.77) |
| GFTLNSYGIS | VIRSDGRRTFYGDSVK | GRAAGTFDS | n.d. 3.81 6.06 | 4.94 | 3 of 9 (4.50) |
| GFTLNSYGIS | VIFSDGRRTFYVDSVK | GRAAGTFDS | 1.24 1.32 1.85 | 1.47 | 0 of 9 |

From the list, the first 6 with no signal in any replicate:

{"CDR-H1": "GKTLNSYGIS", "CDR-H2": "WIYSDGRRTFYGDEVK", "CDR-H3": "GRAAGTFDS", "log10 Kd (nM) by replicate": "n.d. n.d. n.d.", "mean, log10 nM": "n.d.", "control signals": "0 of 9"}
{"CDR-H1": "GFTLNSYGIS", "CDR-H2": "VIYSDGRRTFEGDSVK", "CDR-H3": "GRGAGTFDY", "log10 Kd (nM) by replicate": "n.d. n.d. n.d.", "mean, log10 nM": "n.d.", "control signals": "2 of 9 (3.67)"}
{"CDR-H1": "ETTLNSYGIS", "CDR-H2": "VIYSDGRRTFYGDSQK", "CDR-H3": "GRAAGTFDS", "log10 Kd (nM) by replicate": "n.d. n.d. n.d.", "mean, log10 nM": "n.d.", "control signals": "0 of 9"}
{"CDR-H1": "HFTLNSYGIS", "CDR-H2": "VIYSDGRRTFTGDSNK", "CDR-H3": "GRAAGTFDS", "log10 Kd (nM) by replicate": "n.d. n.d. n.d.", "mean, log10 nM": "n.d.", "control signals": "1 of 9 (3.52)"}
{"CDR-H1": "GATLNSYGIS", "CDR-H2": "VIYSPGRRTFYGDSVY", "CDR-H3": "GRAAGTFDS", "log10 Kd (nM) by replicate": "n.d. n.d. n.d.", "mean, log10 nM": "n.d.", "control signals": "2 of 9 (3.42)"}
{"CDR-H1": "GFTLNSYGIS", "CDR-H2": "VIYSDKRRTFYGDSVK", "CDR-H3": "GRTAGTFDI", "log10 Kd (nM) by replicate": "n.d. n.d. n.d.", "mean, log10 nM": "n.d.", "control signals": "1 of 9 (3.74)"}

In this assay the parent's reference entry averaged 0.65; its copy inside this library read 4.11 (one replicate of three). As a blank, each scFv also met three strains without target: over library AAYL49, 15% of these pairings were detected, typically at 4.06 and seldom below 2.83. Also given: how often the same scFv was detected with the empty control strains, with their mean in brackets.